## Measured boiling point values of organic chemicals

From the experimental data distributed with OPERA 2.9.

The boiling point refers to atmospheric pressure (760 mmHg), by the definition of the set.
The databases behind each value are named after "via".

Nc1cc(S(=O)(=O)O)ccc1C(=O)O is reported with BP 360 °C (via eChemPortal). The entry for Cc1ccsc1C1=NOC(C)(COCc2c(F)cccc2F)C1 (centres undefined) lists BP 403 °C (via OCHEM). Listed for FC1(F)C(F)(F)C(F)(F)[C@]2(F)C(F)(F)C(F)(F)C(F)(F)[C@]2(F)C1(F)F: BP 118 °C (via OCHEM). O=CC(F)(F)C(F)(F)C(F)(F)C(F)(F)C(F)(F)C(F)(F)C(F)(F)C(F)(F)F is reported with BP 126 °C (via ChemicalBook, OCHEM). FC(F)C(F)(OB(OC(F)(C(F)F)C(F)(F)F)OC(F)(C(F)F)C(F)(F)F)C(F)(F)F (centres undefined) has BP 117.5 °C (via ChemicalBook).

FC(F)(Cl)C(F)(Cl)I (centres undefined) is reported with BP 99 °C (via OCHEM). The entry for CC(=O)CCC1C(C)=CCCC1(C)C (centres undefined) lists BP 277 °C (via eChemPortal). CC(C)CC(=O)O[C@H]1C[C@H]2CC[C@]1(C)C2(C)C has BP 258 °C (via OCHEM). Listed for CC(C)C(Br)C(=O)O[C@H]1C[C@H]2CC[C@]1(C)C2(C)C (stereo partly drawn): BP 163 °C (via OCHEM). For C[Si](C)(C)C(F)(F)C(F)(F)C(F)(F)C(F)(F)F the data give BP 100 °C (via ChemicalBook).

For CCN(C(=O)N(CC)c1ccccc1)c1ccccc1 the data give BP 326.8 °C (via PubChem, eChemPortal). CC(=CC(C)C)C(C)OC(C)(C)CO (centres undefined) has BP 223 °C (via eChemPortal). For FC(F)(F)OC(F)(CC1CO1)C(F)(F)F (centres undefined) the data give BP 108 °C (via ChemicalBook). For O=C(Cl)C(F)(F)C(F)(F)C(F)(F)C(F)(F)C(F)(F)C(F)(F)C(F)(F)C(F)(F)C(F)(F)F the data give BP 170 °C (via ChemicalBook). The entry for C1CC2OC2C1OC1CCC2OC12 (centres undefined) lists BP 203 °C (via OCHEM).

For CCCCOC(=O)[C@H](O)[C@@H](O)C(=O)OCCCC the data give BP 320 °C (via OCHEM). For FC(c1ccccc1)C(F)(F)F (centres undefined) the data give BP 128.5 °C (via ChemicalBook). The entry for O=S(=O)(Sc1ccccc1)c1ccc(Cl)cc1 lists BP 118 °C (via OCHEM). Listed for CC1CCO1 (centres undefined): BP 59 °C (via OCHEM). For O=C=Nc1ccc(Cl)c(Cl)c1 the data give BP 228 °C (via eChemPortal).

CC(F)(F)C(F)(F)C(F)(F)F has BP 15.15 °C (via ChemicalBook). C1COCCNN1 is reported with BP 174.5 °C (via eChemPortal). Listed for CCCC[Si](C)(C)C: BP 115 °C (via OCHEM). The entry for CC(C)C(O)c1ccccc1 (centres undefined) lists BP 223 °C (via OCHEM). Listed for Cc1cc(Cc2cc(C)c(O)c(C)c2)cc(C)c1O: BP 240 °C (via eChemPortal).

For C=C(C)c1cccc(C(C)(C)N=C=O)c1 the data give BP 270 °C (via OCHEM). O=CC(F)(F)C(F)(F)C(F)(F)C(F)(F)C(F)(F)C(F)(F)C(F)(F)C(F)(F)C(F)(F)C(F)(F)F has BP 132 °C (via OCHEM). For CCOC(=O)/C=C/C(C)C the data give BP 178 °C (via eChemPortal). For CCOC(=S)C(=S)OCC the data give BP 235 °C (via OCHEM). CCCCCCC(c1ccccc1)c1ccccc1 has BP 334 °C (via OCHEM).

The entry for O=C(Br)C(F)(F)C(F)(F)C(F)(F)C(F)(F)F lists BP 81 °C (via ChemicalBook). FC(F)(F)C(F)(F)C1(F)OC(F)(F)C(F)(F)C1(F)F (centres undefined) is reported with BP 56 °C (via OCHEM). C=CC(=O)OCC1CC2C=CC1C2 (centres undefined) has BP 104 °C (via PubChem). CCC(=O)/C=C/C1=C(C)CCCC1(C)C has BP 281 °C (via eChemPortal). Listed for FC(F)(F)C(F)(F)C1CCCCC1: BP 101.5 °C (via ChemicalBook).

O=S(=O)(O)C(F)(F)C(F)(F)C(F)(F)F has BP 196 °C (via ChemicalBook, OCHEM). For N#CC(F)(F)C(F)(F)C(F)(F)C(F)(F)C(F)(F)OC(F)=C(F)F the data give BP 110 °C (via ChemicalBook). For CC(O)CN(CCCN(CCCN(C)C)CCCN(C)C)CC(C)O (centres undefined) the data give BP 340 °C (via eChemPortal). For C1=CC=CCCC=C1 the data give BP 146 °C (via OCHEM). The entry for O=C(O)/C=C\C(=O)O lists BP 138 °C (via eChemPortal).

O=C(O)CO is reported with BP 169 °C (via eChemPortal). For COCc1c(F)c(F)c(COC(=O)C2C(C)(C)C2(C)C)c(F)c1F the data give BP 314 °C (via OCHEM). CCOC(C=C(C)CCC=C(C)C)OCC is reported with BP 230 °C (via eChemPortal). CCOC(C)OC(C)C#CC1(O)C=C(C)CCC1C(C)C (centres undefined) is reported with BP 184 °C (via eChemPortal). For COCC=O the data give BP 92 °C (via OCHEM).

For CC(=O)Oc1c(C)c(C)nc2c(F)cc(C(C)(C)C)cc12 the data give BP 380 °C (via OCHEM). For O=C1CC(C(=O)O)CC(=O)C1=C(O)C1CC1 (centres undefined) the data give BP 220 °C (via OCHEM). For COc1ccccc1C(=O)O the data give BP 200.7 °C (via eChemPortal).

Excerpt, the final 5 entries:

CCOC(C)OC(C)C#CC1(O)C=C(C)CCC1C(C)C (centres undefined) has BP 184 °C (via eChemPortal).
COCC=O has BP 92 °C (via OCHEM).
CC(=O)Oc1c(C)c(C)nc2c(F)cc(C(C)(C)C)cc12 has BP 380 °C (via OCHEM).
O=C1CC(C(=O)O)CC(=O)C1=C(O)C1CC1 (centres undefined) has BP 220 °C (via OCHEM).
COc1ccccc1C(=O)O has BP 200.7 °C (via eChemPortal).

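The numbers are reported measurements, compiled and curated for the OPERA QSAR suite. One number stands for a compound and property, with no spread given. Method and conditions are not stated for these values. The measured form (salt, isomer or mixture) is not always the one drawn. Unmarked limits or estimates from the upstream databases cannot be ruled out.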